# Experiment: Plasma pharmacokinetics of vorinostat after oral administration (non-compartmental analysis)
# Description: The assays were validated according to the common FDA and EMA guidelines on bioanalytical method validation.
compound,measurement,setting,value
O=C(CCCCCCC(=O)Nc1ccccc1)NO [vorinostat],"t1/2, Minimum","530 mg/m2/d oral, plasma, minimum of 3 values",1.36 h
same,t1/2,"human, in vivo, 214 mg/m2",1.12 h

# Reference: publication PMC6902473 (Clinical Epigenetics, 2019)
